We go through 3 compounds from patent publication EP0672658B1, “Antithrombotic agents” (priority 1994, dated 1995).

This data set is described as follows: in vivo. Particulars: plasma, rat. Also noted: species or system rats.
Setting [1] is: po, read-out: % oral/i.v. activity (Rat).

Structures can show the parent of a compound that is named as a salt. Where two headings read alike, the source gives them in different places.
Also: key: NC^1 indicates screening not completed; low or very low activity obsrved at 20 mg/kg p.o; NC^2 indicates screening not completed; low or very low activity observed at 60 mg/kg p.o; NC^3 indicates screening not completed; low or very low activity observed at 50 mg/kg p.o.

Compound `N=C(N)c1ccc(CNC(=O)[C@@H]2CCCN2C(=O)[C@H]2CCCCN2)cc1` [Example 17, D-hPro-Pro-p-NHCH2C6H4C(NH)NH2·HCl] displayed a bioavailability (oral vs i.v.) of 15%.

Consider `N=C(N)c1ccc(CNC(=O)[C@@H]2CCCN2C(=O)[C@@H]2NCC[C@@H]3CCCC[C@@H]32)cc1` [Example 18, 1-Piq-Pro-p-NHCH2C6H4C(NH)NH2·2HCl], for which the bioavailability under setting [1] was found to be 12%.

On to `CCS(=O)(=O)N[C@H](Cc1ccccc1)C(=O)N1CCC[C@H]1C(=O)NCc1ccc(C(=N)N)cc1` [Example 23, EtSO2-D-Phe-Pro-p-NHCH2-C6H4C(=NH)NH2·HCl], for which the bioavailability under setting [1] worked out at 12%.
